According to ChEMBL document CHEMBL4417631, “Oral peptide inhibitors of interleukin-23 receptor and their use to treat inflammatory bowel diseases” (2017):

Legend:
Rattus norvegicus [1] = test: Anti-colitis activity in Sprague-Dawley rat model of DSS-induced colitis assessed as reduction in disease activity index at 20 mg/kg, po dosed 3 times per day; assay type: functional
Rattus norvegicus [2] = test: Anti-colitis activity in Sprague-Dawley rat model of DSS-induced colitis assessed as reduction in disease activity index at 30 mg/kg, ip dosed 3 times per day; assay type: functional

## COc1ccc(C[C@H](NC(=O)[C@@H]2CSCC[C@H](NC(C)=O)C(=O)N[C@@H](CCC(N)=O)C(=O)N[C@@H]([C@@H](C)O)C(=O)N[C@@H](Cc3c[nH]c4ccccc34)C(=O)N[C@@H](CCC(N)=O)C(=O)N2)C(=O)N[C@@H](Cc2ccc3ccccc3c2)C(=O)N[C@@](C)(CCCCN)C(=O)N[C@@H](CCC(=O)O)C(=O)N[C@@H](CC(N)=O)C(=O)NCC(N)=O)cc1
Rattus norvegicus [1]
  Activity_index: 0.56
Rattus norvegicus [2]
  Activity_index: 0.83
